Test results published in article PMC9304723 (Heliyon, 2022).

The chains behind the UniProt entries cited, without tags or fusion partners. Where a name states a change or a piece, a line headed by the entry shows the natural chain unless it says otherwise.
UniProt O94956: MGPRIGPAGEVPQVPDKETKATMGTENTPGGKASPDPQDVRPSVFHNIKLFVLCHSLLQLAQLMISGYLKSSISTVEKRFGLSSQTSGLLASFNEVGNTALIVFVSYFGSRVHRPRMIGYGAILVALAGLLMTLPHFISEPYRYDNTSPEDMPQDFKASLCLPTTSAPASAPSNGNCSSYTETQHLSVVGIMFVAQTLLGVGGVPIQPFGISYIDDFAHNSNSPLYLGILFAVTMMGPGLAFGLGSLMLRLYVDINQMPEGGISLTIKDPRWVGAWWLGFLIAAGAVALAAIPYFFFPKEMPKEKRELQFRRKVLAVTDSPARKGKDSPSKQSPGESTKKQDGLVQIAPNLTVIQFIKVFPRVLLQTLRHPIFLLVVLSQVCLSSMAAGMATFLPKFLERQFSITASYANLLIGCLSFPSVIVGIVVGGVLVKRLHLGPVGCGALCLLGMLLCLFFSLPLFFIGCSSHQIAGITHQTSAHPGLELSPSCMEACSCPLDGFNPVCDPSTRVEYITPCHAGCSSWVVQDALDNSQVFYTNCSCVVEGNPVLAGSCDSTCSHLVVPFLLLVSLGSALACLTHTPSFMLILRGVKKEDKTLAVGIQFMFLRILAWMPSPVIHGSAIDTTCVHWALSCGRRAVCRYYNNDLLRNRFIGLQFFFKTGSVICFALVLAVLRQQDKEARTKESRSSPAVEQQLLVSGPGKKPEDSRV
UniProt P08183, whole entry: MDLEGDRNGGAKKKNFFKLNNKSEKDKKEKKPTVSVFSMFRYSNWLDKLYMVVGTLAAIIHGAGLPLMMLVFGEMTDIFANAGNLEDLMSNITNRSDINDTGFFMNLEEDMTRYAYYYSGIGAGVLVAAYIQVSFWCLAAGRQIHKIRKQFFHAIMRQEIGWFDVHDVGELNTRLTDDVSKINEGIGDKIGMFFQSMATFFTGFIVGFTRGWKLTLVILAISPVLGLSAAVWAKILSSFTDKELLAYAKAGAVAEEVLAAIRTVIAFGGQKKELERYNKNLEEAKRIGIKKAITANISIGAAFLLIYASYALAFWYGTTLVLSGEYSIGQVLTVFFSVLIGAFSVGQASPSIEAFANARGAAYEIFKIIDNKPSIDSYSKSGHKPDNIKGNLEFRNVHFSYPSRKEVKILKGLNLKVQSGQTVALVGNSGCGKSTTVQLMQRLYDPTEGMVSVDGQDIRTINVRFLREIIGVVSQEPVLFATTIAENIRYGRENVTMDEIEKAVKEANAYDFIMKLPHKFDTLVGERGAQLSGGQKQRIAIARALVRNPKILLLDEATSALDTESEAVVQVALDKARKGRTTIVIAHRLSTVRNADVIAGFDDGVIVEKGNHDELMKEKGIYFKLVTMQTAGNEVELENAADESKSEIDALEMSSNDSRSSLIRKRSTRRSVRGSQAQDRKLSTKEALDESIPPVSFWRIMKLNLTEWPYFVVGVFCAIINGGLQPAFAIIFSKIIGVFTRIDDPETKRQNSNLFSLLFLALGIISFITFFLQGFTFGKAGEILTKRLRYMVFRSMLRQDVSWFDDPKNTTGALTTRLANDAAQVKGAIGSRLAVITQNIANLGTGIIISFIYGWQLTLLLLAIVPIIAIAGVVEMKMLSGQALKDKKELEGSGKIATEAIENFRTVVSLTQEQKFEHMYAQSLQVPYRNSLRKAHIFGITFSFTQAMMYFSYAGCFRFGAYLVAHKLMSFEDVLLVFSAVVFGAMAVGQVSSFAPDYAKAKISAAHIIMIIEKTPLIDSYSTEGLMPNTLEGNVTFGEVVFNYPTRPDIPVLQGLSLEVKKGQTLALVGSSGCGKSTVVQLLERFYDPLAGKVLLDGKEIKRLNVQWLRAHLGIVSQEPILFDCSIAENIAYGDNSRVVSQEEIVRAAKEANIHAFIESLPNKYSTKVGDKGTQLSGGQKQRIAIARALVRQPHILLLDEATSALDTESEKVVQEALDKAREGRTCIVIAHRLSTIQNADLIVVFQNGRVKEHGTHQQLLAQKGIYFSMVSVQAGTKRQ

Legend:
[1] = rats; cited from earlier work
[2] = molecular target: OATP2B1 (Homo sapiens, UniProt O94956); assay: Caco-2 transport of CA with OATP2B1 inhibitor baicalin; assay type: in vitro ADME
[3] = Stability of CA in prepared plasma samples in the autosampler; assay type: physicochemical, rat; conditions: prepared sample, 4 °C for 24 h in the autosampler
[4] = test system: Caco-2 cells; assay: Cell viability by MTT assay; assay type: cell-based; conditions: 100–800 μM, 24 h exposure
[5] = molecular target: P-glycoprotein (Pgp) (Homo sapiens, UniProt P08183); assay: Caco-2 transport of CA with Pgp inhibitor GF120918; assay type: in vitro ADME
[6] = Pharmacokinetic study in rats after gavage administration; assay type: in vivo, Sprague–Dawley rats; conditions: 20 mg/kg
[7] = test system: Caco-2 cell monolayers; assay: Caco-2 monolayer Transwell permeability of CA; assay type: in vitro ADME; conditions: for Papp A to B / Papp BL to AP (B–A): over 180 min
[8] = 2 μM GF120918 in apical compartment
[9] = CA 500 μM, 0.05% chitosan in HBSS pH 6.3 in apical compartment
[10] = CA 500 μM, HBSS pH 6.3, without chitosan
[11] = CA 500 μM, monolayer preincubated with 5 mM EDTA for 5 min
[12] = range over the tested concentrations

Change of Papp A–B after baicalin treatment ([2]; 6 μM baicalin): no significant change
Papp B–A after baicalin treatment ([2]; 6 μM baicalin in apical compartment): (0.6 ± 0.1) × 10^−7 cm/s
Substrate of OATP2B1 transporter ([2]; Caco-2, baicalin): essential substrate
Remaining ([3]; QC 100.0 ng/mL in rat plasma): 102.0%
Remaining ([3]; QC 500.0 ng/mL in rat plasma): 100.6%
Remaining ([3]; QC 2000.0 ng/mL in rat plasma): 99.4%
Increase of Papp A–B after GF120918 treatment ([5]; 2 μM GF120918): 1.75 fold
Papp A–B after GF120918 treatment [5, 8]: (1.8 ± 0.3) ×10 ^−7 cm/s
Papp B–A after GF120918 treatment [5, 8]: (0.6 ± 0.2) × 10^−7 cm/s
Substrate of p-glycoprotein ([5]; Caco-2, GF120918): essential substrate
AUC0-t [6]: 439.2 ± 123. μg·min/mL
AUC0-∞ [6]: 451.9 ± 136.6 µg·min/mL
CL/F [6]: 35.7 ± 23.8 mL/min/kg
Cmax [6]: 635.8 ± 128.3 ng/mL
Tmax [6]: 5 h
Vd,λz/F [6]: 16.7941 ± 12.6385 L/kg
t1/2,λz [6]: 5.55 ± 1.44 h
Papp values at the three concentrations ([7]; 100, 200, 500 μM): below 1 × 10^−6 cm/s
Permeability with chitosan relative to pH 6.3 without chitosan ([7]; A–B direction): approximately 3 fold
Efflux ratio Papp (B–A)/Papp (A–B) ([7]; CA 100 μM): 1.2
Papp A to B ([7]; CA 100 μM, HBSS): (2.1 ± 0.5) ×10^−7 cm/s
Papp BL to AP (B–A) ([7]; CA 100 μM, HBSS): (2.6 ± 0.3) ×10^−7 cm/s
Efflux ratio Papp (B–A)/Papp (A–B) ([7]; CA 200 μM): 1.8
Papp A to B ([7]; CA 200 μM, HBSS): (8.2 ± 1.9) × 10^−8 cm/s
Papp BL to AP (B–A) ([7]; CA 200 μM, HBSS): (1.5 ± 0.3) × 10^−7 cm/s
Efflux ratio Papp (B–A)/Papp (A–B) ([7]; CA 500 μM): 1.5
Papp A–B with chitosan treatment [7, 9]: (2.1 ± 0.1) ×10 ^−7 cm/s
Papp B–A with chitosan treatment [7, 9]: (2.3 ± 0.3) ×10 ^−7 cm/s
Papp A–B at pH 6.3 [7, 10]: (6.7 ± 1.2) ×10 ^−8 cm/s
Papp B–A at pH 6.3 [7, 10]: (2.5 ± 0.3) ×10 ^−7 cm/s
Papp BL to AP (B–A) ([7]; CA 500 μM, HBSS pH 7.4 (control)): (1.6 ± 0.1) × 10^−7 cm/s
Papp A–B with EDTA treatment [7, 11]: (4.5 ± 0.4) ×10 ^−6 cm/s
Papp B–A with EDTA treatment [7, 11]: (2.5 ± 0.2) ×10 ^−5 cm/s
Papp B–A relative to A–B at pH 6.3 ([7]; pH 6.3): approximately 3 fold
Efflux ratio with chitosan ([7]; pH 6.3 environment, chitosan): ~1.0
Papp in the absorption direction [7, 12]: 0.082 to 0.21 ×10⁻⁶ cm/s
Papp in the secretory direction [7, 12]: 0.15 to 0.26 ×10⁻⁶ cm/s
Substance: Chicoric acid [CA]
Excretion of the prototype in urine, of the dosage [1]: 15.3%
Cell viability [4]: more than 90%
